Reference: patent publication US20240108745A1 (MEDILINK THERAPEUTICS SUZHOU, published 2024)

T1: human B7H3-4IgG-his (human, UniProt Q5ZPR3 27-461)
T1 construct: range 27-461; Recombinant antigen expressed in HEK293F; also called human B7H3-4Ig-his; human 4Ig B7H3
T1 sequence: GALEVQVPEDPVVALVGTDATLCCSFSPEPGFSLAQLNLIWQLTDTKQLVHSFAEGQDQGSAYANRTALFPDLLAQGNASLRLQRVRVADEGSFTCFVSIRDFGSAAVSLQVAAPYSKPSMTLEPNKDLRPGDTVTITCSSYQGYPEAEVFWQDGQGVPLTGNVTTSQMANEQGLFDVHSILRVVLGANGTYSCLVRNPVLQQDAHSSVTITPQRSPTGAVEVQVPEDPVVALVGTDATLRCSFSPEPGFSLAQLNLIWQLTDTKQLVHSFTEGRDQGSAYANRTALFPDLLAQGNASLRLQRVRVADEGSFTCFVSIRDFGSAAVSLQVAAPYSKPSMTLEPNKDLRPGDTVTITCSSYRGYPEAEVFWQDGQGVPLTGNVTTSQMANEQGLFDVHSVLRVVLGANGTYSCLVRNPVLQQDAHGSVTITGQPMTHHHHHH

T2: monkey B7H3-4IgG-his (monkey)
T2 construct: Recombinant antigen expressed in HEK293F; also called monkey B7H3-4Ig-his
T2 chain: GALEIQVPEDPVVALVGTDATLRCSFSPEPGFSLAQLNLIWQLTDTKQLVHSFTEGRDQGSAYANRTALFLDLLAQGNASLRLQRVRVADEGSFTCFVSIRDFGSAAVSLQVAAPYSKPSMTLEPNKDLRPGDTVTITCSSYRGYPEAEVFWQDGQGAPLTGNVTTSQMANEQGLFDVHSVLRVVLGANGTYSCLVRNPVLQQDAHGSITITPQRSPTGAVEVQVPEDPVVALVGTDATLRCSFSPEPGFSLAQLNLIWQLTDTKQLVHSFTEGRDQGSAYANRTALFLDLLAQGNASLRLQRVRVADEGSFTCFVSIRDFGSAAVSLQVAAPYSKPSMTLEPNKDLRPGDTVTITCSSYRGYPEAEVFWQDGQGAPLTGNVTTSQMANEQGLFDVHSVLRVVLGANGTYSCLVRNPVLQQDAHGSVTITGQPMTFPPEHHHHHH

T3: human B7H3-2IgG-his (human, UniProt Q5ZPR3-2 29-245)
T3 construct: range 29-245; The range 29-245 counts on NCBI NP_001316557.1 as printed; also called Human B7H3-2Ig-his; human 2Ig B7H3
T3 sequence: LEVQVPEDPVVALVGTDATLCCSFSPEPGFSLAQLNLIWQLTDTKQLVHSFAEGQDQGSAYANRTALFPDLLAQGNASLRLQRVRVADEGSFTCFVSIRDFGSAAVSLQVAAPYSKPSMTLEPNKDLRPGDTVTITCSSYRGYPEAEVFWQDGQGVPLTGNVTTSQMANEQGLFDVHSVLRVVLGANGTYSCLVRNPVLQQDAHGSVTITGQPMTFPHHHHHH

T4: human B7-1 (human, UniProt P33681 35-242)
T4 construct: Bought protein
T4 sequence (looked up): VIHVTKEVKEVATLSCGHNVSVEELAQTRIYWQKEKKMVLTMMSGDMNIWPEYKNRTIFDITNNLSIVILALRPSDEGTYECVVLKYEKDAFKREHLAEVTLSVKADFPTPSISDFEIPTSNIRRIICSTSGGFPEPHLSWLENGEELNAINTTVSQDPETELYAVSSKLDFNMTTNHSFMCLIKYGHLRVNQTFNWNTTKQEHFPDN

T5: human B7-2 (human, UniProt P42081 24-245, limits assumed)
T5 construct: Bought protein
T5 sequence (looked up): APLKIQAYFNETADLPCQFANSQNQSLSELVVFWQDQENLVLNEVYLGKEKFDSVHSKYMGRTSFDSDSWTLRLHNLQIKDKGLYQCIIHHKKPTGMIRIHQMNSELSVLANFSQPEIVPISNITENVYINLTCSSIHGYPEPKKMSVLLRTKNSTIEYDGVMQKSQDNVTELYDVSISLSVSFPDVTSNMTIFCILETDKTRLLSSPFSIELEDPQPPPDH

T6: human B7H2-his (human, UniProt O75144 19-258, limits assumed)
T6 construct: Bought protein
T6 sequence (looked up): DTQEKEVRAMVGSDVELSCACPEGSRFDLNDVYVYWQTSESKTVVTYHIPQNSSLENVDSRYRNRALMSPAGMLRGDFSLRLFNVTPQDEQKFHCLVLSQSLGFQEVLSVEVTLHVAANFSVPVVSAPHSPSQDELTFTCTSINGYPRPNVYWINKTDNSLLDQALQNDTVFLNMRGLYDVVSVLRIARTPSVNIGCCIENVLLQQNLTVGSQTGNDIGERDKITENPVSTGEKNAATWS

T7: human B7H4-his (human, UniProt Q7Z7D3 25-258, limits assumed)
T7 construct: Bought protein
T7 sequence (looked up): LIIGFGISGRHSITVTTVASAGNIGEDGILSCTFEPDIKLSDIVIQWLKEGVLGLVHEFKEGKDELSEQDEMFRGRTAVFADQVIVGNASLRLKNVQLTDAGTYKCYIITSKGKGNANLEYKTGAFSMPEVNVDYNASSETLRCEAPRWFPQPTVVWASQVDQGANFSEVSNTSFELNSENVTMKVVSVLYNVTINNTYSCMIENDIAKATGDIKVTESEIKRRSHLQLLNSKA


How the values were obtained:
human B7H3-4IgG-his [1] = target: T1, human B7H3-4IgG-his; test: BLI (Fortibio); reference human B7H3-2Ig-his
human B7H3-4IgG-his [2] = target: T1, human B7H3-4IgG-his; test: ELISA, antigen coated at 1 µg/mL, antibody titrated, anti-human Fc-HRP
Protocol: (§1) The plate was washed 5 times with PBST. TMB chromogenic solution was added at 100 μL/well and incubated at 37° C. for 7 min to develop color, and then the stop solution was added at 50 μL/well to terminate the reaction.

monkey B7H3-4IgG-his [3] = target: T2, monkey B7H3-4IgG-his; test: as above
Protocol: as §1

human B7H3-4IgG-his [4] = target: T1, human B7H3-4IgG-his; test: BLI (Fortibio), antibody on ProA sensor, antigen 200-1.5625 nM, 1:1 model
human B7H3-2IgG-his = target: T3, human B7H3-2IgG-his; test: as above
monkey B7H3-4IgG-his [5] = target: T2, monkey B7H3-4IgG-his; test: as above
human B7-1 [6] = target: T4, human B7-1; test: ELISA, human B7-1 coated at 1 µg/mL, single antibody concentration, OD 450 nm
human B7-2 [7] = target: T5, human B7-2; test: ELISA, human B7-2 coated at 1 µg/mL, single antibody concentration, OD 450 nm
human B7H1-his [8] = target: T8, human B7H1-his (human, UniProt Q9NZQ7 19-239); test: ELISA, human B7H1-his coated at 1 µg/mL, single antibody concentration, OD 450 nm
T8 construct: Bought protein

human B7H2-his [9] = target: T6, human B7H2-his; test: ELISA, human B7H2-his coated at 1 µg/mL, single antibody concentration, OD 450 nm
human B7H4-his [10] = target: T7, human B7H4-his; test: ELISA, human B7H4-his coated at 1 µg/mL, single antibody concentration, OD 450 nm
human B7-1 [11] = target: T4, human B7-1; test: ELISA, human B7-1 coated at 1 µg/mL, single antibody concentration, OD 450 nm; remark: listed apart in the source
human B7-2 [12] = target: T5, human B7-2; test: ELISA, human B7-2 coated at 1 µg/mL, single antibody concentration, OD 450 nm; remark: listed apart in the source
human B7H1-his [13] = target: T8, human B7H1-his; test: ELISA, human B7H1-his coated at 1 µg/mL, single antibody concentration, OD 450 nm; remark: listed apart in the source
human B7H2-his [14] = target: T6, human B7H2-his; test: ELISA, human B7H2-his coated at 1 µg/mL, single antibody concentration, OD 450 nm; remark: listed apart in the source
human B7H4-his [15] = target: T7, human B7H4-his; test: ELISA, human B7H4-his coated at 1 µg/mL, single antibody concentration, OD 450 nm; remark: listed apart in the source

Row | Binder | dynamic affinity fold, human B7H3-4Ig-his/human B7H3-2Ig-his (human B7H3-4IgG-his [1]) [fold] | EC50 (human B7H3-4IgG-his [2]) [nM] | EC50 (monkey B7H3-4IgG-his [3]) [nM] | Kd (human B7H3-4IgG-his [4]) [nM] | Kd (human B7H3-2IgG-his) [nM] | Kd (monkey B7H3-4IgG-his [5]) [nM] | binding result (human B7-1 [6]) | binding result (human B7-2 [7]) | binding result (human B7H1-his [8]) | binding result (human B7H2-his [9]) | binding result (human B7H4-his [10]) | binding result (human B7-1 [11]) | binding result (human B7-2 [12]) | binding result (human B7H1-his [13]) | binding result (human B7H2-his [14]) | binding result (human B7H4-his [15])
1 | anti-B7H3 antibody 1D1-01 (antibody, human IgG1, kappa, V domains shown) VH: EGQLVESGGGLVQPGGSLRLSCAASGFTISSYWMNWVRQAPGKGLEWVANIKQDGSEKYYVDSVQGRFTISRDNAKNSLYLQMNSLRAEDTAVYYCARRMYSSGWYWGAFDMWGQGTMVTVSS VL: EIVLTQSPGTLSLSPGERATLSCRASQSVSSIYLAWNQQKPGQAPRLLIYGTFKRATGIPDRFSGSGSGTDFTLTISSLEPEDFAVYYCQQYDTSSITFGQGTRLEIKR | 9.5 | 0.0436 | 0.0358 | 0.043 | 0.41 | 0.25 | no binding (tested: 10 µg/mL) | no binding (tested: 10 µg/mL) | no binding (tested: 10 µg/mL) | no binding (tested: 10 µg/mL) | no binding (tested: 10 µg/mL) | – | – | – | – | –
2 | anti-B7H3 antibody 2E3-02 (antibody, human IgG1, kappa, V domains shown) VH: EVQLLESGGGLVQPGGSLRLSCAASGFTFSSYAMNWVRQAPGKGLEWVSGISGSGGSTYYADSVQGRFTISRDNSKNTLYLQMNSLRAEDTAVYYCAKARSGYDYFFDYWGQGTLVTVSS VL: EIVLTQSPGTLSLSPGERATLSCRASQRISSSFLAWYQQKPGQAPSLLIYGASSRATGIPDRFSGSGSGTDFTLTISSLEPEDFAVFYCQQYSNSPLTFGGGTKVEIKR | 32.5 | 0.0175 | 0.0277 | 0.24 | 7.8 | 0.47 | – | – | – | – | – | no binding (tested: 10 µg/mL) | no binding (tested: 10 µg/mL) | no binding (tested: 10 µg/mL) | no binding (tested: 10 µg/mL) | no binding (tested: 10 µg/mL)

Read-outs that look alike come from different tables or passages of the source.
